Source: ChEMBL document CHEMBL1221276, “Structure-based design, synthesis, and biological evaluation of lipophilic-tailed monocationic inhibitors of neuronal nitric oxide synthase” (Bioorg Med Chem, 2010)

By UniProt entry, the sequences of proteins in these tests, tags left out.
UniProt P29476, whole entry: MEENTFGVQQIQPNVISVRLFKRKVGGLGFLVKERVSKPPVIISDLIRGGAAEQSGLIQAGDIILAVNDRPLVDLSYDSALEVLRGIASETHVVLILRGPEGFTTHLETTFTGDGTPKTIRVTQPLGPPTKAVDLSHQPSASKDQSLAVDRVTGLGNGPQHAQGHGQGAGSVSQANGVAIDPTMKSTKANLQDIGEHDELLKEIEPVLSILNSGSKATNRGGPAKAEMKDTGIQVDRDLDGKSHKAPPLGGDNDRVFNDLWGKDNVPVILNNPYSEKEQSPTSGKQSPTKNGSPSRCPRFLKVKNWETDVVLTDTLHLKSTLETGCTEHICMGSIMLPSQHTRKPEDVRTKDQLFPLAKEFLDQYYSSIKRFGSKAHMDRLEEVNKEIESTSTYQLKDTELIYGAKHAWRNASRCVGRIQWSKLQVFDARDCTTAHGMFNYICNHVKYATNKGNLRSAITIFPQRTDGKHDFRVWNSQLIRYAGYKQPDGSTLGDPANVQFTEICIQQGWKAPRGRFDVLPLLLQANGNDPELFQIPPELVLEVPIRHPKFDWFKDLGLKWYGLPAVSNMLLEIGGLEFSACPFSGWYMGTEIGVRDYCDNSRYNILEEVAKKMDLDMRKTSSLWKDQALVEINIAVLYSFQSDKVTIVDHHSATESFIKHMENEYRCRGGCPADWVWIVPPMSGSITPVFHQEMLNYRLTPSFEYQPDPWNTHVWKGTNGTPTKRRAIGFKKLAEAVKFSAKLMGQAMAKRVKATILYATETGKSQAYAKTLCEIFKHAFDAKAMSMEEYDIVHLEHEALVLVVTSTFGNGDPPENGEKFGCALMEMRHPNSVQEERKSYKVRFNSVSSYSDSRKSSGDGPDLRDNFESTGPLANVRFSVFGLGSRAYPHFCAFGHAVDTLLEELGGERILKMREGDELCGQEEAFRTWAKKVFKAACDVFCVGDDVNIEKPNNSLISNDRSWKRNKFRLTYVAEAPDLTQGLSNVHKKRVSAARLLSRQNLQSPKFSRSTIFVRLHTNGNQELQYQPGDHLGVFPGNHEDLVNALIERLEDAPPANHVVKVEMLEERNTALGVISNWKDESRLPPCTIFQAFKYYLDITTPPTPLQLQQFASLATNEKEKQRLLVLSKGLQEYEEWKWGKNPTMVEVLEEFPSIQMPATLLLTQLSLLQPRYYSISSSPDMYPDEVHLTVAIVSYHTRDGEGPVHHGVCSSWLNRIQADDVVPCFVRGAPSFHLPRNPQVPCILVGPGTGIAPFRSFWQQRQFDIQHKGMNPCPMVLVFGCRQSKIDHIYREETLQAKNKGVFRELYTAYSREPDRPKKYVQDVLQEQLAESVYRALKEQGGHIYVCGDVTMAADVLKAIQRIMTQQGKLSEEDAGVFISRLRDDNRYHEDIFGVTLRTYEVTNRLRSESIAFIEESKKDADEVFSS

Columns and labels:
[1] = target: T1, Nitric oxide synthase 3 (Bos taurus, UniProt P29473); assay: Inhibition of bovine recombinant eNOS expressed in Escherichia coli by hemoglobin capture assay
T1 sequence (P29473 whole entry): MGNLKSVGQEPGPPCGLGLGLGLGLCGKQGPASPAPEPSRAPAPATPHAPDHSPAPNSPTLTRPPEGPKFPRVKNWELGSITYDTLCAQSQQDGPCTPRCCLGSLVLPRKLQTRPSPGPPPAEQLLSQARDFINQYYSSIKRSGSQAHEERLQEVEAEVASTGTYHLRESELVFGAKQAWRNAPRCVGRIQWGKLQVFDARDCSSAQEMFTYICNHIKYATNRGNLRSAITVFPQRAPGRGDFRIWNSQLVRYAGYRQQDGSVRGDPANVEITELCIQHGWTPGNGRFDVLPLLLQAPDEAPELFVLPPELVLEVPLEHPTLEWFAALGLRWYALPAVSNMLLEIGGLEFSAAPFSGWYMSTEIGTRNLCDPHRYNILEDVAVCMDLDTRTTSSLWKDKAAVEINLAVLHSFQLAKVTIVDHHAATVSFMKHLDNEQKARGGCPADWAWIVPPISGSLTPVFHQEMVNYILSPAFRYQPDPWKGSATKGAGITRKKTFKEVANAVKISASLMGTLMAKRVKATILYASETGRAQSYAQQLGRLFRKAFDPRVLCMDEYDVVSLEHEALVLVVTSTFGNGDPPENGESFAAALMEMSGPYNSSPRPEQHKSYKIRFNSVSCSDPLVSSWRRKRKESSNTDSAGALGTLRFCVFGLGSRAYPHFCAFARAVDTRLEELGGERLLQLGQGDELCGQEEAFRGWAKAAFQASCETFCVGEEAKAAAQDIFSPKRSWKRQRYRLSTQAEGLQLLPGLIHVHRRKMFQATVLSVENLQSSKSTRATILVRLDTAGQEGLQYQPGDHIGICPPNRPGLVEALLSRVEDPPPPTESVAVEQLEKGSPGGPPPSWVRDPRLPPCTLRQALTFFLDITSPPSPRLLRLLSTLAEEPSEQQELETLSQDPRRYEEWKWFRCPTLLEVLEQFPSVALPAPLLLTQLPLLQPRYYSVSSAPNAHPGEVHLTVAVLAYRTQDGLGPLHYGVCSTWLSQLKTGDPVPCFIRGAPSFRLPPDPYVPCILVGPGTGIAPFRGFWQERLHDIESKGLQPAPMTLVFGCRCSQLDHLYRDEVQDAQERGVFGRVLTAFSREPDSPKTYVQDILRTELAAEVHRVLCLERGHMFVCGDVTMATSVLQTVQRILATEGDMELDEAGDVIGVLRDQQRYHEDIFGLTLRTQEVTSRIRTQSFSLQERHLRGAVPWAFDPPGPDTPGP

[2] = target: T2, Nitric oxide synthase, inducible (Mus musculus, UniProt P29477); assay: Inhibition of mouse recombinant iNOS expressed in Escherichia coli by hemoglobin capture assay
T2 sequence (P29477 whole entry): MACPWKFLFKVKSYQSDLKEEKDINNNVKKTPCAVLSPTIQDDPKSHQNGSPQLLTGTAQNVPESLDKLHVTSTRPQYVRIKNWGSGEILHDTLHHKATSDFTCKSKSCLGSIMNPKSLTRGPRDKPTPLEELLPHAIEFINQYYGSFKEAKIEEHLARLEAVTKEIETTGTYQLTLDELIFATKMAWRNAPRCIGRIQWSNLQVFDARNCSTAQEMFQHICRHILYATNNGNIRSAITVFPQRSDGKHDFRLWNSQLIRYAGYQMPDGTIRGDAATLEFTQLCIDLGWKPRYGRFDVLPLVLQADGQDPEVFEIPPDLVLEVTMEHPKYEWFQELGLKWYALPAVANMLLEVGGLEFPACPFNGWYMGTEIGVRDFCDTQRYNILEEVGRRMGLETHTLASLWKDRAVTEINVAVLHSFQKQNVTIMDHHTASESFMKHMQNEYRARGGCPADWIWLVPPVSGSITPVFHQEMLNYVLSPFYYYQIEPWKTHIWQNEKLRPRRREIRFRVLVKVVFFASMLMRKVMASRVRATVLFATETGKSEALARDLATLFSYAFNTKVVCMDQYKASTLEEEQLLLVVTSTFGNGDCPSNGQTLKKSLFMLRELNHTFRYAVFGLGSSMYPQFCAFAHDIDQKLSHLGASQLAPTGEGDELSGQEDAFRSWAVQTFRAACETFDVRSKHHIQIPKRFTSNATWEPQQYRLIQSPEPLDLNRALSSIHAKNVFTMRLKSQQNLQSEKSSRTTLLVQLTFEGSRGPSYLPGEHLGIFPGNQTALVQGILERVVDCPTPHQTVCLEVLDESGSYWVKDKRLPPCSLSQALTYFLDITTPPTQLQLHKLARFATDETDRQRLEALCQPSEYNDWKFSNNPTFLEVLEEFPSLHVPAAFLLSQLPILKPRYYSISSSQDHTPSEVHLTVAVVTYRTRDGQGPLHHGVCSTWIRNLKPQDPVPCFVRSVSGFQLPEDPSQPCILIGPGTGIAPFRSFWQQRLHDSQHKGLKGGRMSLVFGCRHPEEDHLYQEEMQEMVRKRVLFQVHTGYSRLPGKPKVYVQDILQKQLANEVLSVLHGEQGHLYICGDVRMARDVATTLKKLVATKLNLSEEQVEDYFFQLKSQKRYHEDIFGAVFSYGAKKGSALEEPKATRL

[3] = target: Nitric oxide synthase 1 (Rattus norvegicus, UniProt P29476); assay: Inhibition of rat recombinant nNOS expressed in Escherichia coli by hemoglobin capture assay

## Cc1cc(N)nc(C[C@@H]2CNC[C@@H]2OCc2ccc(-c3ccc(F)c(Cl)c3)cc2)c1 (racemic)
[1]
  Ki: 13.3 µM
[2]
  Ki: 50 µM

## Cc1cc(N)nc(C[C@@H]2CNC[C@@H]2OCc2ccc(-c3ccc(F)c(C)c3)cc2)c1 (racemic)
[1]
  Ki: 8 µM

## Cc1cc(N)nc(C[C@@H]2CNC[C@@H]2OCc2ccc(-c3cccc(C(F)(F)F)c3)cc2)c1 (racemic)
[3]
  Ki: 0.82 µM
